{"source": "patent US7994123B2", "about": "“Hybrid proteins with ErbB4 extracellular domain and neuregulin heparin-binding domain for targeting” (Wayne State University, priority 2004, dated 2011)", "key": {"[1]": {"test_system": "erbB receptor phosphorylation (p185) in MCF10CA1 cells", "assay": "p185 receptor phosphorylation western blot, MCF10CA1", "format": "cell-based, human", "settings": "IgB4 conditioned media", "description": "Western blots and L6 muscle assays: P185 receptor phosphorylation of the three cell lines was measured by phosphotyrosine western blots after NRG treatment for 30 min on 3 day old cultures as described in WO 03/012045 and Li Q & Loeb J A (2001) J Biol Chem; 276:38068-75. In experiments to block NRG-induced receptor activation, 1 nM of NRG with or without blocking reagents (IgB4, 10 μM AG1478 or 100 μg/ml Trastuzumab) on 3 day old MCF10CA1 cells for 30 min at 37° C. in a 5% CO2 incubator. The media was discarded and phosphotyrosine western blots were performed as above. The membranes were stripped and reprobed with polyclonal rabbit erbB2 for the detection of overall erbB2 protein that was used for quantitation.\nIgB4, AG1478 and Trastuzumab treatments: NRG antagonist IgB4-stablely transfected HEK 293 cells were cultured to 80% confluent before Optimem I was applied to the cells. After 2 days, the Optimem I conditioned media was concentrated by Centricon at 4° C. 40 μl of IgB4 conditioned media or 10 μM of tyrosine kinase inhibitor AG1478 were combined with […] 1 nM NRG in MCF10A/AT media for 15 min at room temperature before being added to MCF10CA1 cells for 30 min treatment. […] The amount of each antagonist was determined empirically based on its ability to block NRG-induced activation of L6 cells."}, "[2]": {"test_system": "MCF10CA1 human breast cancer cells", "assay": "Cell proliferation assay, MCF10CA1", "format": "cell-based", "settings": "IgB4 conditioned media, 10 μM AG1478 or 100 μg/ml Trastuzumab", "description": "Cell proliferation assays: All three breast epithelial cell lines were plated at 5000 cells/well in 48 well plates in regular MCF10A/AT or MCF10CA1 media. After incubation for 3 days, 1 nM NRG in MCF10A/AT media or just MCF10A/AT media alone were applied to the cells for another 24 hours followed by washing them with culture media and then counting cell numbers using an hemocytometer on the 4th, 5th, 6th, 7th and 8th day.\nIgB4, AG1478 and Trastuzumab treatments: NRG antagonist IgB4-stablely transfected HEK 293 cells were cultured to 80% confluent before Optimem I was applied to the cells. After 2 days, the Optimem I conditioned media was concentrated by Centricon at 4° C. 40 μl of IgB4 conditioned media or 10 μM of tyrosine kinase inhibitor AG1478 were combined with […] 1 nM NRG in MCF10A/AT media for 15 min at room temperature before being added to MCF10CA1 cells for 30 min treatment. For Trastuzumab experiment, the MCF10CA1 cells were pre-treated with 100 μg/ml Trastuzumab in MCF10CA1 media for 24 hours before the cells were treated with 1 nM NRG in the presence of 100 μg/ml Trastuzumab in MCF10A/AT media for 30 min. The amount of each antagonist was determined empirically based on its ability to block NRG-induced activation of L6 cells."}}}
{"substance": "Trastuzumab: humanized mAb that binds to erbB2", "values": [{"measurement": "exogenous NRG-induced p185 erbB receptor phosphorylation", "setting": "[1]; 1 nM NRG, 30 min, AG1478 or 100 μg/ml Trastuzumab (24 h pre-treatment)", "result": "response to exogenous NRG was reduced"}, {"measurement": "basal p185 erbB receptor phosphorylation", "setting": "[1]; no exogenous NRG, 10 μM AG1478 or 100 μg/ml Trastuzumab (24 h pre-treatment)", "result": "not affected"}, {"measurement": "MCF10CA1 proliferation with exogenous NRG", "setting": "[2]; 1 nM NRG", "result": "reduced cell proliferation"}, {"measurement": "MCF10CA1 growth rate without exogenous NRG", "setting": "[2]", "result": "no effect on proliferation"}]}
